# ChEMBL document CHEMBL1132143, “Effect of A-ring modifications on the DNA-binding behavior and cytotoxicity of pyrrolo[2,1-c][1,4]benzodiazepines” (J Med Chem, 1999)
# Test system: Calf thymus DNA
# Assay: Tested for thermal denaturation against CT-DNA at 18 hours
# Settings: Bos taurus
structure (smiles),measurement,value
COc1cc2c(cc1O)N=C[C@@H]1CCCN1C2=O,ΔTm,0.7 °C
